Test results taken from US7745450B2, “Pyrazolo[4,3-d]pyrimidines, processes for their preparation and methods for therapy” (Institute of Experimental Botany, priority 2002, dated 2010).

Sequences of proteins named here, by UniProt entry; tags and fusion partners are left off. Residues count along the entry.
UniProt P06493, whole entry: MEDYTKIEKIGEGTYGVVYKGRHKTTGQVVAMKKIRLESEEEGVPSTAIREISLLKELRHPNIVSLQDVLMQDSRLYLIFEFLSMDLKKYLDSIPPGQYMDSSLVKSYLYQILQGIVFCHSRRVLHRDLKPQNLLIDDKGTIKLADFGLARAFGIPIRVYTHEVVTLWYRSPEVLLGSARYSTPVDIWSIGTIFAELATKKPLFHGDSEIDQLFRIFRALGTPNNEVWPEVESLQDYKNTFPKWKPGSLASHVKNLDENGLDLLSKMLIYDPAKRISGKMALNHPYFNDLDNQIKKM
UniProt A0AAV0YZ35, 1-294: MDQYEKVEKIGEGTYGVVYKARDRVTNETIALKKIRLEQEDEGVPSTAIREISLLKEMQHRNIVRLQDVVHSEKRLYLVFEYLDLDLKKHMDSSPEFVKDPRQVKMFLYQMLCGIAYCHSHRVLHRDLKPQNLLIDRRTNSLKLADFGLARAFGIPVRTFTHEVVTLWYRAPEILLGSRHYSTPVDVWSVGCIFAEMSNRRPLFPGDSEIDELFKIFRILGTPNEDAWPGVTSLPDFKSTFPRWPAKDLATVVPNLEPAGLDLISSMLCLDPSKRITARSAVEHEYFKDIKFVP
UniProt A0AAV1B7B8, 1-394: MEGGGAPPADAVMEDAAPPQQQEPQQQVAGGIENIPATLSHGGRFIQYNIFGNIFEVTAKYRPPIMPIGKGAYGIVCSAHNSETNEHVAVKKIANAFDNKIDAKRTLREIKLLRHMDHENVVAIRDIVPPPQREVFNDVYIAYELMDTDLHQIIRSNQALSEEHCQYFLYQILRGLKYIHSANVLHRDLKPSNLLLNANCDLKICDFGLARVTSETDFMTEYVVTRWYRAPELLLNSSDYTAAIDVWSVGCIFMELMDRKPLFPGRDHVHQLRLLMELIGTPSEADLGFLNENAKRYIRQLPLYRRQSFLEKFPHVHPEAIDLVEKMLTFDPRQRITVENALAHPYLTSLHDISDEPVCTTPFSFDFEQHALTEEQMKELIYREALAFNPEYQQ
UniProt P14635, whole entry partner: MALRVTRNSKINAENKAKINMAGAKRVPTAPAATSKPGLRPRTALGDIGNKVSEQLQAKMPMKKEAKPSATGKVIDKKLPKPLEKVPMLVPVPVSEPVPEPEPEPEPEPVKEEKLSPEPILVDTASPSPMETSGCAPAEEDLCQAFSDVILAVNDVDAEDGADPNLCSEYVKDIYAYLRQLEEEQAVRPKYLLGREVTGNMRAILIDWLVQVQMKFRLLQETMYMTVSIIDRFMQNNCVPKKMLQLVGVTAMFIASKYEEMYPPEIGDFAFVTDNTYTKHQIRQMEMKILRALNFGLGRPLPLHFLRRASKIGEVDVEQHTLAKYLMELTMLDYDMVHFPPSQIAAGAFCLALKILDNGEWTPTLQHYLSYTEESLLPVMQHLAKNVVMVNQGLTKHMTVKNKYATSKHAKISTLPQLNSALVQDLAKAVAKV

Assays:
cdk1/cyclin B (CDC2) = cdk1/cyclin B (CDC2) (Homo sapiens, UniProt P06493); experiment: CDK inhibition assay, cdk1/cyclin B (CDC2) kinase, histone phosphorylation; type: biochemical; conditions: read-out: CDC2 IC50
IκB-α kinase = IκB-α kinase inhibition, in vitro kinase assay; conditions: read-out: IκB-α IC50
[1] = target: cdc2a-MS protein (plant CDK, cdc2Ms kinase) (Vicia faba, UniProt A0AAV0YZ35); experiment: CDK inhibitory activity on plant kinases (plant CDK); conditions: read-out: Cdc2a IC50, histone H1 phosphorylation
MMK1 protein kinase = MMK1 protein kinase (Vicia faba, UniProt A0AAV1B7B8); experiment: MMK1 protein kinase activity; conditions: read-out: MMK1 IC50
B16 = experiment: In vitro cytotoxic activity, Calcein AM; conditions: read-out: B16 GI50, three days
[2] = system: CEM (human lymphoblastoid leukemia); experiment: In vitro cytotoxic activity, Calcein AM; conditions: read-out: CEM GI50, three days

SMILES | IC50 (cdk1/cyclin B (CDC2)) [nM] | IC50 (IκB-α kinase) [nM] | IC50 [1] [nM] | IC50 (MMK1 protein kinase) [nM] | GI50 (B16) [nM] | GI50 [2] [nM]
CC[C@H](CO)Nc1nc(NCc2cc(O)c(Cl)cc2O)c2[nH]nc(C(C)C)c2n1 | 8 | 15 | – | – | – | –
Cc1n[nH]c2c(NCc3cc(O)c(Cl)cc3O)nc(NCCO)nc12 | 10 | 35 | – | – | – | –
Cc1n[nH]c2c(NCc3c(O)cc(Cl)cc3O)nc(NCCO)nc12 | – | – | 60 | 160 | 2500 | 1800
CC[C@H](CO)Nc1nc(NCc2c(O)cc(Cl)cc2O)c2[nH]nc(C(C)C)c2n1 | 1 | 2 | 1 | 2 | 2900 | 1600
Cc1n[nH]c2c(NCc3ccc(Cl)c(O)c3O)nc(NCCO)nc12 | – | – | 90 | 220 | 3200 | 2100
